Target: T1, Histamin-H2-Rezeptoren (Cavia porcellus, UniProt P47747)
T1 construct: in vitro am isolierten rechten Vorhof des Meerschweinchens; from tissue; host or cells: isolated right atrium of the guinea pig
Test: Determination of pA2 values in vitro on the isolated right atrium of the guinea pig (H2-antagonistic activity)
Assay type: cell-based, Meerschweinchen
Description: Die erfindungsgemäßen Verbindungen zeigen aufgrund ihrer spezifischen H2-antagonistischen Aktivität eine Hemmung der Magensäuresekretion, wenn diese durch Histaminagonisten stimuliert wird [Ash und Schild, "Brit. J. Pharmacol. Chemother.", 27, 427 (1966) und Black et al., "Nature", 236, 385 (1971)]. Die pharmakologische Aktivität dieser Verbindungen, wie sie genauer weiter unten beschrieben werden, kann nach einer modifizierten Methode gemäß der DE-OS 27 34 070 beim perfundierten Rattenmagen gezeigt werden oder durch die Ermittlung der pA2-Werte in vitro am Meerschweinchenvorhof (vgl. Ariens, Molecular Pharmacology, Band 1, Academic Press, New York, 1964) nachgewiesen werden. Weiterhin kann die H2-antagonistische Wirkung an wachen Heidenhain-Pouch-Hunden nach der Methode von Black et al., "Nature", 236, 385 (1971) gezeigt werden. Die neuen Verbindungen antagonisieren weiterhin die Histaminwirkung auf die Kontraktionsfrequenz des isolierten rechten Atriums des Meerschweinchens, aber sie beeinflussen nicht histamininduzierte Kontrakti men des isolierten, glatten gastrointestinalen Muskels, wenn diese durch H2-Agonisten hervorgerufen werden.
Eine anerkannte Methode zur Bestimmung H2-antagonistischer Wirksamkeit ist die Ermittlung der pA2-Werte in vitro am isolierten rechten Vorhof des Meerschweinchens.

By UniProt entry, the sequences of proteins in these tests, tags left out.
UniProt P47747, whole entry: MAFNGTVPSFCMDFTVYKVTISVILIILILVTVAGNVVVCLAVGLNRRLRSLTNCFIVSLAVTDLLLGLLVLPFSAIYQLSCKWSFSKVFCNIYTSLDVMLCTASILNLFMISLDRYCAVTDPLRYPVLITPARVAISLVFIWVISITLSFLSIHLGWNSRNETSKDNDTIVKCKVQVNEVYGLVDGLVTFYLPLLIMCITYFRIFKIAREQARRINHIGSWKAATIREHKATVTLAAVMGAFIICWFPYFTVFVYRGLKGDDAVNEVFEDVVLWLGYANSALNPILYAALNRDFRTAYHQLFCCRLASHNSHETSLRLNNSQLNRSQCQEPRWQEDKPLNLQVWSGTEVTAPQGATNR

CN/C(=N/CCSCc1nc[nH]c1C)NC#N [Cimetidin]
Kb: 490 nM
